Among the data in ChEMBL document CHEMBL6087480, “In Search for Inhibitors of Human Aldo-Keto Reductase 1B10 (AKR1B10) as Novel Agents to Fight Cancer and Chemoresistance: Current State-of-the-Art and Prospects” (J Med Chem, 2025) are IC50 values, retold here.

The target in the test is Aldo-keto reductase family 1 member B1 (Homo sapiens, UniProt P15121). The test can be described thus: Inhibition of AKR1B1 (unknown origin).

`Cc1c2cc(O)c(=O)cc-2oc2cc(O)c(O)cc12` displayed an IC50 of 1.6 µM.
